# According to PubChem BioAssay (NCI):
# Several values for one entry are separate records, joined by “and”; a condition that tells them apart may be missing. Equal values may be shown once. The entries are a selection whose mix differs from that of the whole data set.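 Plates (96-well) were seeded with cells, treated with compound at one concentration, and incubated for 48 hours before percent growth was determined.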 Activity calls are given as the source filed them. How the source made its calls: active means growth percent below 10; inactive means the rest.
# Experiments:
# Assay in all cases: NCI-60 one-dose screen, 48 h (100 = growth as untreated, 0 = no growth, -100 = all killed)
# Conditions in all cases: 10 µM unless noted
# NCI/ADR-RES ovarian = tested on: NCI/ADR-RES ovarian
# T-47D breast = tested on: T-47D breast
# BT-549 breast = tested on: BT-549 breast
# MDA-MB-435 melanoma = tested on: MDA-MB-435 melanoma
# SW-620 colon = tested on: SW-620 colon
# MCF7 breast = tested on: MCF7 breast
# HCT-116 colon = tested on: HCT-116 colon
# HCC-2998 colon = tested on: HCC-2998 colon
# KM12 colon = tested on: KM12 colon
Structure (SMILES),growth (NCI/ADR-RES ovarian),growth (T-47D breast),growth (BT-549 breast),growth (MDA-MB-435 melanoma),growth (SW-620 colon),growth (MCF7 breast),growth (HCT-116 colon),growth (HCC-2998 colon),growth (KM12 colon)
O=[As](O)(c1ccc(O)cc1)c1ccccc1O,inactive: 98%,inactive: 97%,inactive: 83.6%,inactive: 99.1%,inactive: 97%,inactive: 96.2%,inactive: 88.3%,inactive: 73.3%,inactive: 106%
NC(=O)Nc1ccc([As](=O)(O)O)cc1,inactive: 105%,inactive: 100%,inactive: 102%,inactive: 106%,inactive: 105%,inactive: 88.9%,inactive: 108%,inactive: 106%,inactive: 115%
CC(Cl)CN(CC(C)Cl)C(=O)c1ccccc1 (configuration not stated),inactive: 97.9%,inactive: 100%,inactive: 101%,inactive: 107%,inactive: 100%,inactive: 83%,inactive: 96.5%,inactive: 100%,inactive: 99.3%
O=[N+]([O-])C1C(O)C(O)C([N+](=O)[O-])C(O)C1O (configuration not stated),inactive: 105%,inactive: 99.8%,inactive: 99.9%,inactive: 99.8%,inactive: 106%,inactive: 92.1%,inactive: 104%,inactive: 102%,inactive: 117%
CCN(CCCl)/N=N/c1nc2nc[nH]c(=O)c2[nH]1,inactive: 96.1%,inactive: 77.6%,inactive: 116%,inactive: 104%,inactive: 103%,inactive: 104%,inactive: 107%,inactive: 102%,inactive: 99.4%
Nc1ccc(CCCCOc2ccccc2)cc1,inactive: 94.6%,inactive: 75.3%,inactive: 66%,inactive: 99.6%,inactive: 95.1%,inactive: 84.3%,inactive: 86%,inactive: 98.5%,inactive: 85.9%
Cc1ccc(SP(=O)(CCl)N(CCCl)CCCl)cc1 (configuration not stated),inactive: 99.1%,inactive: 94.8%,inactive: 98.2%,inactive: 98.7%,inactive: 97.1%,inactive: 99.1%,inactive: 103%,inactive: 108%,inactive: 105%
ClP1(Cl)=NP(Cl)(Cl)=NP(c2ccccc2)(c2ccccc2)=N1,inactive: 97.1%,inactive: 57.3%,inactive: 82.9%,inactive: 104%,inactive: 102%,inactive: 98.6%,inactive: 81.8%,inactive: 103%,inactive: 103%
CC(Cl)CN(CC(C)Cl)C(=O)OCC(N)C(=O)O (configuration not stated),inactive: 105% and inactive: 39.5%,inactive: 97.6% and inactive: 109%,inactive: 101%,inactive: 114% and inactive: 103%,inactive: 100% and inactive: 113%,inactive: 96.6% and inactive: 95.9%,inactive: 101% and inactive: 94.9%,inactive: 113%,inactive: 110% and inactive: 115%
O=C1CSC(C(Cl)(Cl)Cl)N1c1ccc(Cl)cc1 (configuration not stated),inactive: 99.8%,inactive: 90.8%,inactive: 101%,inactive: 98.8%,inactive: 103%,inactive: 99.6%,inactive: 91.5%,inactive: 108%,inactive: 95.5%
NP(=O)(N(CCCl)CCCl)N1CC1 (configuration not stated),inactive: 99.6%,inactive: 93.5%,inactive: 96.1%,inactive: 106%,inactive: 103%,inactive: 95.5%,inactive: 92.7%,inactive: 102%,inactive: 113%
CN(C)P(=O)(Nc1ccccn1)N(C)C,inactive: 109%,inactive: 103%,inactive: 104%,inactive: 103%,inactive: 106%,inactive: 97.9%,inactive: 108%,inactive: 101%,inactive: 111%
CCN(CC)C(=O)Oc1ccc(/C=N/NC(N)=S)nc1,inactive: 89%,inactive: 73.3%,inactive: 83%,inactive: 92.8%,inactive: 89.7%,inactive: 85.1%,inactive: 82.5%,inactive: 81.7%,inactive: 73.6%
O=[As](O)(c1ccccc1)c1ccc(O)cc1,inactive: 100%,inactive: 97.9%,inactive: 118%,inactive: 97.7%,inactive: 111%,inactive: 71.3%,inactive: 95.5%,inactive: 103%,inactive: 110%
COC(=O)C(=[N+]=[N-])C(=O)c1cc([N+](=O)[O-])cc([N+](=O)[O-])c1,inactive: 118%,inactive: 115%,inactive: 110%,inactive: 117%,inactive: 110%,inactive: 103%,inactive: 104%,inactive: 115%,inactive: 106%
CCN(CCCl)C(Cc1ccccc1)c1ccccc1 (configuration not stated),inactive: 107%,inactive: 88.7%,inactive: 112%,inactive: 105%,inactive: 91.6%,inactive: 98.9%,inactive: 102%,inactive: 103%,inactive: 103%
CCCCOP(=O)(OCCCC)N1CCCC1C(=O)O (configuration not stated),inactive: 104%,inactive: 87.7%,inactive: 102%,inactive: 106%,inactive: 98.3%,inactive: 97.4%,inactive: 96.5%,inactive: 111%,inactive: 108%
N#CC(C#N)=C(C#N)N(CCCl)CCCl,inactive: 103%,inactive: 96.7%,inactive: 116%,inactive: 105%,inactive: 98.1%,inactive: 86.5%,inactive: 99.7%,inactive: 100%,inactive: 96.5%
O=[N+]([O-])c1cc(Oc2ccc([N+](=O)[O-])cc2C(F)(F)F)cc([N+](=O)[O-])c1,inactive: 91.5%,inactive: 88%,inactive: 94.3%,inactive: 110%,inactive: 112%,inactive: 99.6%,inactive: 90.9%,inactive: 104%,inactive: 102%
O=[N+]([O-])c1cccc(Oc2ccc([N+](=O)[O-])cc2[N+](=O)[O-])c1,inactive: 17.2%,inactive: 38.7%,inactive: 30.1%,active: -56.7%,inactive: 12%,inactive: 12.5%,active: 6.58%,inactive: 50.7%,active: 0.158%
ClCCN(Cc1ccc(Cl)cc1)Cc1ccc(Cl)cc1,inactive: 89.5%,inactive: 75%,inactive: 97.5%,inactive: 100%,inactive: 76.7%,inactive: 58.2%,inactive: 93.5%,inactive: 110%,inactive: 99.4%
CCN(CCCl)CC1COc2ccccc2O1 (configuration not stated),inactive: 104%,inactive: 103%,inactive: 104%,inactive: 110%,inactive: 98.1%,inactive: 93.8%,inactive: 106%,inactive: 110%,inactive: 103%
COc1cc([N+](=O)[O-])cc([N+](=O)[O-])c1,inactive: 99.4%,inactive: 104%,inactive: 99.3%,inactive: 109%,inactive: 108%,inactive: 85.7%,inactive: 88.4%,inactive: 118%,inactive: 101%
CC(C)c1nc(Nc2ccccc2)n(P(=O)(N(C)C)N(C)C)n1,inactive: 103%,inactive: 101%,inactive: 104%,inactive: 113%,inactive: 105%,inactive: 92.4%,inactive: 99.7%,inactive: 108%,inactive: 107%
O=P1(N(CCCl)CCCl)OCCC2CCCCN21 (configuration not stated),inactive: 109%,inactive: 109%,inactive: 104%,inactive: 111%,inactive: 108%,inactive: 99.1%,inactive: 104%,inactive: 102%,inactive: 108%
NC(=S)N/N=C/c1ccc(N(CCF)CCCl)cc1,inactive: 100%,inactive: 60.1%,inactive: 124%,inactive: 87.9%,inactive: 91.8%,inactive: 73.2%,inactive: 91%,inactive: 93.3%,inactive: 108%
ClCCNCc1ccccc1,inactive: 108%,inactive: 105%,inactive: 114%,inactive: 107%,inactive: 101%,inactive: 94.7%,inactive: 108%,inactive: 111%,inactive: 102%
O=[As](O)(c1ccc(Cl)cc1)C1CCCCC1O (configuration not stated),inactive: 95.8%,inactive: 75.6%,inactive: 116%,inactive: 104%,inactive: 74.3%,inactive: 73.2%,inactive: 83.4%,inactive: 101%,inactive: 104%
